Data as given in patent US20260031189A1, “METHOD AND SYSTEMS FOR PREDICTION OF HLA CLASS II-SPECIFIC EPITOPES AND CHARACTERIZATION OF CD4+ T CELLS” (BioNTech US Inc., priority 2022, published 2026).

What was measured:
[1] = target: NSCLC L7: TCRs on CD4+ T cells
[2] = target: NSCLC L7: TCRs on CD4+ T cells; assay: ex vivo pMHCII multimer staining of patient PBMCs, flow cytometry, PE / BV711
[3] = target: NSCLC L7: TCRs on CD4+ T cells; assay: ex vivo pMHCII multimer staining of patient PBMCs, flow cytometry, PE / PE-CF594
[4] = target: NSCLC L7: TCRs on CD4+ T cells; assay: ex vivo pMHCII multimer staining of patient PBMCs, flow cytometry, PE / APC

Substance: L7-ASP0034 DRB1*07:01 (peptide-MHC)
- multimer-positive frequency of CD4+ T cells [1]: 0.002%

Substance: L7-ASP0043 DRB1*07:01 (peptide-MHC)
- multimer-positive frequency of CD4+ T cells [2]: 0.003%

Substance: L7-ASP0043 DRB1*12:01 (peptide-MHC)
- multimer-positive frequency of CD4+ T cells [3]: 0.003%

Substance: L7-ASP0046 DRB1*12:01 (peptide-MHC)
- multimer-positive frequency of CD4+ T cells [4]: 0.001%

Substance: L7-ASP0064 DRB1*07:01 (peptide-MHC)
- multimer-positive frequency of CD4+ T cells [1]: 0.034%

Read-outs that look alike come from different tables or passages of the source.
